Literature values, collected in patent US20190338294A1, “ORTHOGONAL TRANSCRIPTIONAL SWITCHES DERIVED FROM TET REPRESSOR HOMOLOGS FOR SACCHAROMYCES CEREVISIAE” (The Johns Hopkins University, priority 2016, published 2019).

Test system: yeast
Details: Ikushima et al., 2015; cited from earlier work

D-camphor
impact on yeast growth: little impact on yeast growth
